Here are results for 1 compound from article PMC9007139 (Journal of medicinal chemistry, 2020).

For the data set the following is noted: earlier model study (unpublished).

`CNC(=O)c1cn(C[C@H](F)CCc2ccc(NC(=O)Cc3cc(OC4CC(F)(F)C4)cc(C)n3)nn2)nn1` [Compound 27, (R)-1-(4-(6-(2-(4-(3,3-difluorocyclobutoxy)-6-methylpyridin-2-yl)acetamido)pyridazin-3-yl)-2-fluorobutyl)-N-methyl-1H-1,2,3-triazole-4-carboxamide] gave a maximally tolerated dose of 100 mg/kg BID.
